# Assay: Stability in blood (human blood plasma, HPLC)
# Assay type: in vitro ADME
row,Structure (SMILES),(e) evaluation with respect to the stability in blood
1,CC[C@H](C)[C@H](NC(=O)[C@H](CO)NC(=O)[C@H](CO)NC(=O)[C@@H](NC(=O)[C@H](CO)NC(=O)[C@H](CO)NC(=O)[C@H](CO)NC(=O)[C@H](Cc1ccc(O)cc1)NC(=O)[C@H](CC(N)=O)NC(=O)[C@H](N)CCCCN)[C@@H](C)CC)C(=O)N[C@@H](CCCNC(=N)N)C(=O)N[C@@H](C)C(=O)N[C@@H](CS)C(=O)O,A (a peptide which remains in blood plasma over 1 hour)
2,CC[C@H](C)[C@H](NC(=O)[C@H](CO)NC(=O)[C@H](CO)NC(=O)[C@@H](NC(=O)[C@H](CO)NC(=O)[C@H](CO)NC(=O)[C@H](CO)NC(=O)[C@H](Cc1ccc(O)cc1)NC(=O)[C@H](CC(N)=O)NC(=O)[C@@H](N)CCCNC(=N)N)[C@@H](C)CC)C(=O)N[C@@H](CCCNC(=N)N)C(=O)N[C@@H](C)C(=O)N[C@@H](CS)C(=O)O,C (a peptide which is completely degraded in blood plasma in 10 minutes to 30 minutes)
3,CC[C@H](C)[C@H](NC(=O)[C@H](CO)NC(=O)[C@H](CO)NC(=O)[C@@H](NC(=O)[C@H](CO)NC(=O)[C@H](CO)NC(=O)[C@H](CO)NC(=O)[C@H](Cc1ccc(O)cc1)NC(=O)[C@@H](CC(N)=O)NC(=O)[C@H](N)CCCCN)[C@@H](C)CC)C(=O)N[C@@H](CCCNC(=N)N)C(=O)N[C@@H](C)C(=O)N[C@@H](CS)C(=O)O,A (a peptide which remains in blood plasma over 1 hour)
4,CC[C@H](C)[C@H](NC(=O)[C@H](CO)NC(=O)[C@H](CO)NC(=O)[C@@H](NC(=O)[C@H](CO)NC(=O)[C@H](CO)NC(=O)[C@H](CO)NC(=O)[C@H](Cc1ccc(O)cc1)NC(=O)[C@H](CC(N)=O)NC(=O)[C@H](N)CCCCN)[C@@H](C)CC)C(=O)N[C@@H](CCCNC(=N)N)C(=O)N[C@@H](C)C(=O)N[C@H](CS)C(=O)O,A (a peptide which remains in blood plasma over 1 hour)
5,CC[C@H](C)[C@H](NC(=O)[C@H](CO)NC(=O)[C@H](CO)NC(=O)[C@@H](NC(=O)[C@H](CO)NC(=O)[C@H](CO)NC(=O)[C@H](CO)NC(=O)[C@H](Cc1ccc(O)cc1)NC(=O)[C@H](CC(N)=O)NC(=O)[C@@H](N)CCCNC(=N)N)[C@@H](C)CC)C(=O)N[C@@H](Cc1c[nH]cn1)C(=O)N[C@@H](C)C(=O)N[C@@H](CS)C(=O)O,C (a peptide which is completely degraded in blood plasma in 10 minutes to 30 minutes)
6,CC[C@H](C)[C@H](NC(=O)[C@H](CO)NC(=O)[C@H](CO)NC(=O)[C@@H](NC(=O)[C@H](CO)NC(=O)[C@H](CO)NC(=O)[C@H](CO)NC(=O)[C@H](Cc1ccc(O)cc1)NC(=O)[C@@H](N)CCCCN)[C@@H](C)CC)C(=O)N[C@@H](CCCNC(=N)N)C(=O)N[C@@H](C)C(=O)N[C@@H](CS)C(=O)O,B (a peptide which is degraded in blood plasma in 30 minutes to 1 hour)
7,CC[C@H](C)[C@H](NC(=O)[C@H](CO)NC(=O)[C@H](CO)NC(=O)[C@@H](NC(=O)[C@H](CO)NC(=O)[C@H](CO)NC(=O)[C@H](CO)NC(=O)[C@H](Cc1ccc(O)cc1)NC(=O)[C@H](CC(N)=O)NC(=O)[C@@H](CCCCN)NC(=O)CN)[C@@H](C)CC)C(=O)N[C@@H](CCCNC(=N)N)C(=O)N[C@@H](C)C(=O)N[C@@H](CS)C(=O)O,A (a peptide which remains in blood plasma over 1 hour)
8,CC[C@H](C)[C@H](NC(=O)[C@H](CO)NC(=O)[C@H](CO)NC(=O)[C@@H](NC(=O)[C@H](CO)NC(=O)[C@H](CO)NC(=O)[C@H](CO)NC(=O)[C@H](Cc1ccc(O)cc1)NC(=O)[C@H](N)CCCCN)[C@@H](C)CC)C(=O)N[C@@H](CCCNC(=N)N)C(=O)N[C@@H](C)C(=O)N[C@@H](CS)C(=O)O,A (a peptide which remains in blood plasma over 1 hour)
9,CC[C@H](C)[C@H](NC(=O)[C@H](CO)NC(=O)[C@H](CO)NC(=O)[C@@H](NC(=O)[C@H](CO)NC(=O)[C@H](CO)NC(=O)[C@H](CO)NC(=O)[C@H](Cc1ccc(O)cc1)NC(=O)[C@H](N)CCCCN)[C@@H](C)CC)C(=O)N[C@@H](CCCNC(=N)N)C(=O)N[C@@H](C)C(=O)N[C@H](CS)C(=O)O,A (a peptide which remains in blood plasma over 1 hour)
10,CC[C@H](C)[C@H](NC(=O)[C@H](CO)NC(=O)[C@H](CO)NC(=O)[C@@H](NC(=O)[C@H](CO)NC(=O)[C@H](CO)NC(=O)[C@H](CO)NC(=O)[C@H](Cc1ccc(O)cc1)NC(=O)[C@H](CC(N)=O)NC(=O)[C@H](CCCCN)NC(=O)[C@H](CCCCN)NC(C)=O)[C@@H](C)CC)C(=O)N[C@@H](CCCNC(=N)N)C(=O)N[C@@H](C)C(=O)N[C@@H](CS)C(=O)O,A (a peptide which remains in blood plasma over 1 hour)
11,CC[C@H](C)[C@H](NC(=O)[C@H](CO)NC(=O)[C@H](CO)NC(=O)[C@@H](NC(=O)[C@H](CO)NC(=O)[C@H](CO)NC(=O)[C@H](CO)NC(=O)[C@H](Cc1ccc(O)cc1)NC(=O)[C@H](CC(N)=O)NC(=O)[C@H](N)CCCNC(=N)N)[C@@H](C)CC)C(=O)N[C@@H](CCCNC(=N)N)C(=O)N[C@@H](C)C(=O)N[C@@H](CS)C(=O)O,A (a peptide which remains in blood plasma over 1 hour)
